Measured values taken from article PMC5762728 (Scientific Reports, 2018).

Columns and labels:
[1] = target: T1, C-domain of bovine ACE (C-ACE) (Bos taurus, UniProt P12820); test: Inhibition of C-ACE hydrolysis of Aβ peptides by lisinopril; type: biochemical; details: MALDI-TOF MS
T1 sequence (P12820 643-1222 limits assumed): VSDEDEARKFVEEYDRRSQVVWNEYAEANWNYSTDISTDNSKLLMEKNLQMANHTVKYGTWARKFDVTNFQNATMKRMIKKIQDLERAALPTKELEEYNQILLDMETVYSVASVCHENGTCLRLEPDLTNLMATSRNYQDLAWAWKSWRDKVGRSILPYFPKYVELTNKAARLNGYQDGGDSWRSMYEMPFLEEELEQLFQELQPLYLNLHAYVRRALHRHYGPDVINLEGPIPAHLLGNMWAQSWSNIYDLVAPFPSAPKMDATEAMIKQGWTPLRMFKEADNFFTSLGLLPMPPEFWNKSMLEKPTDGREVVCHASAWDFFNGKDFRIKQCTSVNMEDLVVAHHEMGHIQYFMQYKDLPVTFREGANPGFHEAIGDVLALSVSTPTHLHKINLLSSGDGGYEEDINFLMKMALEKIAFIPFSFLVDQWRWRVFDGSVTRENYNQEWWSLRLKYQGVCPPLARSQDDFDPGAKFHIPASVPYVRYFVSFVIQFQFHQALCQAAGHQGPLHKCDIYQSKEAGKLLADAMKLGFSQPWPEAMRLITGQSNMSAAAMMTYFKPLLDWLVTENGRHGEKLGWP

[2] = target: T2, N-domain of bovine ACE (N-ACE) (Bos taurus, UniProt P12820); test: Inhibition of N-ACE hydrolysis of Aβ peptides by lisinopril; type: biochemical; details: MALDI-TOF MS
T2 sequence (P12820 40-624 limits assumed): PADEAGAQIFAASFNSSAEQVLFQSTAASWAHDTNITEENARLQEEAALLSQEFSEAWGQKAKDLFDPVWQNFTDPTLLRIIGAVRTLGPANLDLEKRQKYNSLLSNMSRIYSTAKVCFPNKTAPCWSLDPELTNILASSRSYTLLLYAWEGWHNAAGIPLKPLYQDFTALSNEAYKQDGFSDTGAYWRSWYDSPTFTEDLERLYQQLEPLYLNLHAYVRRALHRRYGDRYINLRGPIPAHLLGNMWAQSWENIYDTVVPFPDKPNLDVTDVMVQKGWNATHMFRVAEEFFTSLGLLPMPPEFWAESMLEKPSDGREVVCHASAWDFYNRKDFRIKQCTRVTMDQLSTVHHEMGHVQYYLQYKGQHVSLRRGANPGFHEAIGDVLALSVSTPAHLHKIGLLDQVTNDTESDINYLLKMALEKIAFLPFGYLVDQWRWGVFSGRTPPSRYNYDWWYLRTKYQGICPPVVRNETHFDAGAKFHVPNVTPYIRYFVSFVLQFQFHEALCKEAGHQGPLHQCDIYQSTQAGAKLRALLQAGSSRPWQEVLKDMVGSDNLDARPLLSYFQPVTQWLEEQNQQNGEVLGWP

[3] = target: T2, N-domain of bovine ACE (N-ACE); test: Hydrolysis of Aβ metal-binding-domain peptides by N-ACE, products identified/quantified by MALDI-TOF MS; details: 20 μM peptide, 60 min; Arg13-His14 cleavage; MALDI-TOF MS with 18O-labeled internal standards

Effect of lisinopril on C-ACE hydrolysis of [Acetyl]-ratAβ(1-16)-[Amide] [1]	Effect of lisinopril on N-ACE hydrolysis of Aβ(1-16)-[Amide] and [Acetyl]-Aβ(1-16)-[Amide] ([2]; lisinopril 10 μM)	Effect of lisinopril on N-ACE hydrolysis of [Acetyl]-ratAβ(1-16)-[Amide] ([2]; lisinopril)	Amount of [Acetyl]-ratAβ(1-13) formed from [Acetyl]-ratAβ(1-16)-[Amide] by N-ACE relative to C-ACE [3]	Compound
complete inhibition of hydrolysis	complete inhibition of hydrolysis	complete inhibition of hydrolysis	–	NCCCC[C@H](N[C@@H](CCc1ccccc1)C(=O)O)C(=O)N1CCC[C@H]1C(=O)O [lisinopril]
–	–	–	4–4.5 times	Ac-DAEFGHDSGFEVRHQK-NH2 [[CH3CO]-Asp-Ala-Glu-Phe-Gly^5-His-Asp- Ser-Gly- Phe^10-Glu-Val-Arg-His-Gln^15-Lys-[NH2]]
